Values of other authors as cited in patent publication US7531557B2, “Diaryl ethers as opioid receptor antagonists” (Eli Lilly and Company, priority 2002, dated 2009).
Only a part of the results on these compounds is given; other tests are left out.

Test system: mu, delta and kappa receptors in rat striatum/nucleus accumbens
Conditions: read-out: affinity of the radioligand for mu, delta and kappa receptors; radioligand used in the ex vivo binding assay; cited from earlier work

Question: For 3H-diprenorphine, which Kd is on record?
Answer: 0.1 to 0.4 nM
